We go through twelve molecules from ChEMBL document CHEMBL1926558, “Searching for the Multi-Target-Directed Ligands against Alzheimer's disease: discovery of quinoxaline-based hybrid compounds with AChE, H₃R and BACE 1 inhibitory activities” (Bioorg Med Chem, 2011).

Protein sequences, listed by entry. Tags and fused reporters are not part of them. Lines headed by an entry give the natural chain unless they say otherwise; changes in a name come on top.
UniProt Q9Y5N1: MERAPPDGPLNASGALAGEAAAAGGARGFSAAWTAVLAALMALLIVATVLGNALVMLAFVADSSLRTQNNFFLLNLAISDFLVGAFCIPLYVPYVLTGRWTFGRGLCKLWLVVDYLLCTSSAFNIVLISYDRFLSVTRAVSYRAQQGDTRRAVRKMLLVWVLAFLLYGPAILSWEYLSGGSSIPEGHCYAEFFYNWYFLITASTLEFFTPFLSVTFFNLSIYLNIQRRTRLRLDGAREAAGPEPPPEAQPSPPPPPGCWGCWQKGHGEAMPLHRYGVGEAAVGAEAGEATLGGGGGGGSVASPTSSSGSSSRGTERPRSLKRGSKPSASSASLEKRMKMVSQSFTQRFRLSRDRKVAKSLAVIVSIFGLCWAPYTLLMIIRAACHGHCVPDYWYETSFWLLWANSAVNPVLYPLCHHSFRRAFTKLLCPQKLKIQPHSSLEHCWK

Molecules are shown by their SMILES.

The experiment addresses Histamine H3 receptor (Homo sapiens, UniProt Q9Y5N1). Briefly: Antagonist activity at histamine H3 receptor expressed in HEK293 cells co-transfected with pCRE-Luc gene assessed as inhibition of forskolin/histamine-induced cAMP accumulation at 1 uM after 5 hrs by luciferase reporter gene assay. Type of experiment: functional, cell-based.
As for `Nc1nc2ccccc2nc1NC(=O)C1CCN(Cc2ccccc2)CC1`, the inhibition was determined as 0.6%.

`Nc1nc2ccccc2nc1CNc1ccc(CN2CCCCC2)cc1`: the inhibition amounted to 78.2%.

As for `Nc1nc2ccccc2nc1C(=O)Nc1ccc(CN2CCCCC2)cc1`, the inhibition turned out to be 34.6%.

Turning to `Nc1nc2ccccc2nc1NCCOc1ccc(CN2CCCCC2)cc1`, the inhibition was found to be 82.3%.

Consider `CN1CCN(Cc2ccc(OCCNc3nc4ccccc4nc3N)cc2)CC1`, for which the inhibition was determined as 7.4%.

For the molecule `Nc1nc2ccccc2nc1NCC(=O)Nc1ccc(CN2CCCC2)cc1`, the inhibition was determined as 16.9%.

For `Nc1nc2ccccc2nc1NCC(=O)Nc1ccc(CN2CCCCC2)cc1`, the inhibition amounted to 15%.

As to `Nc1nc2ccccc2nc1NCCCOc1ccc(CN2CCCCC2)cc1`, the inhibition came to 40.5%.

As for `CCN(CC)Cc1ccc(OCCNc2nc3ccccc3nc2N)cc1`, the inhibition was 65.5%.

On to `Nc1nc2ccccc2nc1/N=C/c1ccc(CN2CCCCC2)cc1`, for which the inhibition is 0.5%.

In the case of `Nc1nc2ccccc2nc1C(=O)NC1CCN(Cc2ccccc2)CC1`, the inhibition was 1.8%.

`Nc1nc2ccccc2nc1NCc1ccc(CN2CCCCC2)cc1`: the inhibition was 0.2%.
